According to patent US20240165087A1, “APPLICATION OF RILUZOLE- AND BORNEOL-CONTAINING COMPOSITION IN PREPARATION OF MEDICATION FOR TREATING CEREBROVASCULAR DISEASES” (NEURODAWN PHARMACEUTICAL CO., LTD., priority 2021, published 2024):
“And” between values parts separate entries of the source, which are not always exact repeats. Identical values can stand only once.

How the values were obtained:
MCAO rats = assay: Rat focal cerebral ischemia-reperfusion model (MCAO), neurological deficit score and cerebral infarction area; conditions: in vivo
[1] = tested on: rat middle cerebral artery occlusion (MCAO) model; conditions: single intravenous injection, 4 mg/kg and 8 mg/kg, at 30 min after ischemia; cited from earlier work
release of glutamate = conditions: transient global cerebral ischemia in rodent; cited from earlier work

Compound: Nc1nc2ccc(OC(F)(F)F)cc2s1 [Riluzole, 2-Amino-6-trifluoromethoxybenzothiazole]
- Fa, reducing the area of cerebral infarction in MCAO rats (MCAO rats): 0.247 and 0.380
- cerebral infarction area vs MCAO model group (MCAO rats): dose-dependently, significantly reduced
- neurological deficit score of MCAO rats, dose dependence (MCAO rats; iv): dose-dependently reduce
- cerebral infarction area [1]: significantly reduce
- neurological deficit score [1]: significantly reduce
- ischemia-induced surge in release of glutamate (release of glutamate): completely inhibits
